# Reference: ChEMBL document CHEMBL5034046, “Discovery of Small-Molecule CD33 Pre-mRNA Splicing Modulators” (ACS Med Chem Lett, 2022)
# By UniProt entry, the sequences of proteins in these tests, tags left out. Residues count along the entry.
# UniProt Q8NBP7, 31-152 limits assumed: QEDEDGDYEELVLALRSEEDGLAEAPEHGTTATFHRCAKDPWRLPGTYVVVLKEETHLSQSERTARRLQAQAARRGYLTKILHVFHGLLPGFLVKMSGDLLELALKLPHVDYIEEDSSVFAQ
# UniProt Q8NBP7, 153-692 limits assumed: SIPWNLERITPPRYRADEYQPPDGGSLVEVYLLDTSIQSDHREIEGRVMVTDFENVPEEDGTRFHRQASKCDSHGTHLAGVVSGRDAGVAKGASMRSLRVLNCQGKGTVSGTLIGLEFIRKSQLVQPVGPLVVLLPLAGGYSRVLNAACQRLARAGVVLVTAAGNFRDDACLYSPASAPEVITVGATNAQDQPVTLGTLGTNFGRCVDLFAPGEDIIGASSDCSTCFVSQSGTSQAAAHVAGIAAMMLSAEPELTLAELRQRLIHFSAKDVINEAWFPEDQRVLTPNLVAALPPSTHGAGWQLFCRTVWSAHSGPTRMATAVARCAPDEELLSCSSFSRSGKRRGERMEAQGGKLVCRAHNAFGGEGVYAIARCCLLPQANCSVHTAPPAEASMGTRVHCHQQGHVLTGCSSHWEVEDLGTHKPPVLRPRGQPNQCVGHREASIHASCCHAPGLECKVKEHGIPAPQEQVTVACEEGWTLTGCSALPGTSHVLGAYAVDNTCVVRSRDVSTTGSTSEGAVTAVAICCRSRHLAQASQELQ
# pIC50: −log10 of the molar value.
# Target: Proprotein convertase subtilisin/kexin type 9 (Homo sapiens, UniProt Q8NBP7)
# Assay: Inhibition of PCSK9 translation in human THP-1 cells by AlphaLISA assay
# Format: cell-based
row,Structure (SMILES),pIC50
1,O=C(c1ccc(-n2nnc3cccnc32)cc1)N(c1ncccc1Cl)[C@@H]1CCCNC1,6.12
2,Cc1cnc2c(c1)nnn2-c1ccc(C(=O)N(c2ncccc2Cl)[C@@H]2CCCNC2)cc1,6.11
